These results are taken from patent US7351800B2, “Stabilized albumin preparations” (Nipro Corporation, priority 2002, dated 2008).

What all share (assay type): physicochemical
Data set [1] has as its target T1, HSA (Homo sapiens, UniProt P02768). Kind of data set: Differential scanning calorimetry (DSC) of HSA solutions: thermal stabilization effect.
In data set [2] the target is T1, HSA. Briefly: NATIVE-PAGE of HSA after heat treatment at 60° C. for 30 minutes (aggregate inhibition). The following applies: 24-μM HSA, phosphate buffer 67 mM pH 7.4, heat treatment 60° C. for 30 minutes.
For data set [3], the target named is T1, HSA. Briefly: Abundance ratio of mercapto type and non-mercapto type of HSA by HPLC after AAPH oxidation. The following applies: 24-μM HSA, 120 μM of each agent, AAPH added, 280-nm UV.
[4] abbreviates: DSC, 100-μM HSA, 500-μM of each added agent, phosphate buffer pH 7.4, scanning rate 1 K/min.

Regarding “(1) HSA: 100-μM solution of degreased genetically engineered human serum albumin in phosphate buffer pH 7.4, no stabilizer”, in the data set with HSA [1] (setting [4]), the “Tm (thermal transition temperature)” value is 59.50 °C and the “Δhcal (change in enthalpy of transition)” value is reported as 1.64 10^5kcal/mol. Also, in the data set with HSA [1] (albumin solution cooled after first DSC measurement and heated again), the “heating temperature up to which thermal transition is reversible without irreversible denaturation” value was “up to 85 °C”. As for “medical agent under test (1) (no medical agent added): 24-μM HSA in phosphate buffer (67 mM, pH 7.4), Experimental Example 2”, the “aggregates / aggregate-inhibition effect in NATIVE-PAGE” value with HSA [2] is given as “a large quantity of aggregates”. Take “medical agent under test (1): 24-μM HSA phosphate buffer with AAPH, no stabilizer, Experimental Example 4”: the “change in abundance ratio between mercapto type and non-mercapto type of HSA” value with HSA [3] is “a decrease in mercapto type and an increase in non-mercapto type”.
